Data reported in ChEMBL document CHEMBL5214995, “Orally Bioavailable Quinoxaline Inhibitors of 15-Prostaglandin Dehydrogenase (15-PGDH) Promote Tissue Repair and Regeneration” (J Med Chem, 2022).

Assay: Aqueous solubility of the compound under shaking condition by LC-MS/MS analysis
Type: physicochemical
Details: buffer

solubility thermodynamic: 2.1 µg/mL
Structure (SMILES): Cl.Nc1ncc(-c2cnc3ccc(C(=O)N4CCCCC4)cc3n2)cc1Cl
